# Reference: ChEMBL document CHEMBL1155335, “Studies towards topical selective beta2-adrenoceptor agonists with a long duration of action” (Bioorg Med Chem Lett, 2009)
# Legend:
# Assay type in all cases: functional, organism-based
# Cavia porcellus [1] = experiment: Bronchoprotective activity in intratracheally dosed guinea pig assessed as inhibition of acetylcholine-induced increase in pulmonary resistance at 1 ug/kg, intratracheally after 150 mins
# Cavia porcellus [2] = experiment: Bronchoprotective activity in guinea pig assessed as inhibition of acetylcholine-induced increase in pulmonary resistance at 1 ug/kg, intratracheally after 5 hrs
# Cavia porcellus [3] = experiment: Bronchoprotective activity in intratracheally dosed guinea pig assessed as inhibition of acetylcholine-induced increase in pulmonary resistance at 0.3 ug/kg, intratracheally after 30 mins
smiles,measurement,setting,value
COc1ccc(CC(C)NCC(O)c2ccc(O)c(NC=O)c2)cc1 (stereo not drawn),Activity,Cavia porcellus [1],inactive
same,Activity,Cavia porcellus [2],Active
same,Activity,Cavia porcellus [3],inactive

# Active and inactive are the calls of the source. The rule behind the calls is not given here.
